Measurements reported in patent publication US8921397B2, “Benzofurane-piperidine compounds” (Hoffmann-La Roche Inc., priority 2011, dated 2014).

Amino acid sequences for entries named in this document (tags omitted).
UniProt P35462, whole entry: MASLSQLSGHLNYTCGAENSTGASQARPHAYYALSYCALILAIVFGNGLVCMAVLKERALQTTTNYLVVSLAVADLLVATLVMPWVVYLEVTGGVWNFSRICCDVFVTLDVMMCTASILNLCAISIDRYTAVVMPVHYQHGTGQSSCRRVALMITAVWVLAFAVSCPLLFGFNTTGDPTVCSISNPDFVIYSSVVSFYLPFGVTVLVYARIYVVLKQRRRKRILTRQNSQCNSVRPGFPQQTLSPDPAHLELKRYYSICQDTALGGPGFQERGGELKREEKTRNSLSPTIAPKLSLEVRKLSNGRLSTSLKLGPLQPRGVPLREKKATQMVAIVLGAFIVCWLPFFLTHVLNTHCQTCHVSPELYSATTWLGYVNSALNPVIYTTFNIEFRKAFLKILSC
UniProt P14416, whole entry: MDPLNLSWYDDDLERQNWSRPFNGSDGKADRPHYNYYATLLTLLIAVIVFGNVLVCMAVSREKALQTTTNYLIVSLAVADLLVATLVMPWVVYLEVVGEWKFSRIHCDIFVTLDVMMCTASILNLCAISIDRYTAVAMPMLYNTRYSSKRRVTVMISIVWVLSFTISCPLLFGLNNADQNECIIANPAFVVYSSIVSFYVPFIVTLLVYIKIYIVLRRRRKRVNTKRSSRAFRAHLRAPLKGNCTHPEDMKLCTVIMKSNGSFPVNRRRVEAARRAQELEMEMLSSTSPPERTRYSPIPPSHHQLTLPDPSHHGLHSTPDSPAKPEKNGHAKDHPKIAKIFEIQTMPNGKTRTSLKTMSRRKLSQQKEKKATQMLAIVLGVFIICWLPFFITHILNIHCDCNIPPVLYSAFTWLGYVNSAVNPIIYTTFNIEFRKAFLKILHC

Columns and labels:
human D3 receptor = human D3 receptor (Homo sapiens (Human), UniProt P35462); experiment: Radioligand binding ([3H]-spiperone) to human D3 receptor, HEK293 EBNA membranes; conditions: HEK293 EBNA cells expressing human D3 receptor
Experimental: (§1) The ability of the compounds to bind to the 5-HT2A, D3 and D2 receptors was determined using radioligand binding to cloned receptors selectively expressed in HEK-293 EBNA cells.
(§2) HEK293 EBNA cells were transiently transfected with expression plasmids encoding for the human D2 or D3 or for the human 5-HT2A receptor, respectively. The cells were harvested 48 h post-transfection, washed three times with cold PBS and stored at −80° C. prior to use. The pellet was suspended in cold 50 mM Tris-HCl buffer containing 10 mM EDTA (pH 7.4) and was homogenized with a Polytron (Kinematica AG, Basel, Switzerland) for 20-30 sec at 12.000 rpm. […] The protein content of this homogenate was determined with the Bio-Rad (Bradford) Protein Assay (Biorad Laboratories GmbH, München, Germany) according to the instructions of the manufacturer using gamma globulin as the standard. […]
(§3) The binding affinity (Ki) of the compounds was determined using radioligand binding.
(§4) Membranes were incubated in a total volume of 200 μl with a fixed concentration of radioligand (final concentration approximately 0.7 nM [^3H]-spiperone for D2, 0.5 nM [^3 H]-spiperone for D3, and 1.1 nM [^3H]-ketanserin for 5-HT2A) and ten concentrations of test compound in ranging between 10 μM-0.1 nM for 1 h at RT. […] The nonspecific binding was determined with equally composed reaction mixtures in the presence of 10 μM unlabelled spiperone. […]

human D2 receptor = human D2 receptor (Homo sapiens (Human), UniProt P14416); experiment: Radioligand binding ([3H]-spiperone) to human D2 receptor, HEK293 EBNA membranes; conditions: HEK293 EBNA cells expressing human D2 receptor
Experimental: as §1, §2, §3, §4

Ki (human D3 receptor) | Ki (human D2 receptor) | SMILES
2.22 nM |  | O=C(N[C@H]1CC[C@H](CCN2CCC(c3coc4ccccc34)CC2)CC1)C1CCOC1 (mixture of isomers) [Example 17, (RS)-Tetrahydro-furan-3-carboxylic acid trans-{4-[2-(4-benzofuran-3-yl-piperidin-1-yl)-ethyl]-cyclohexyl}-amide]
 | 85.9 nM | O=C(CC1COCCO1)N[C@H]1CC[C@H](CCN2CCC(c3coc4ccccc34)CC2)CC1 (mixture of isomers) [Example 8, trans-N-{4-[2-(4-Benzofuran-3-yl-piperidin-1-yl)-ethyl]-cyclohexyl}-(RS)-2-[1,4]dioxan-2-yl-acetamide]
